Screening results: PubChem, ICCB-Longwood Screening Facility, Harvard Medical School
GIV Gai3 FP: inhibitors of GIV GBA-motif binding to rat Galpha-i3. P08753. Galpha-i3/FITC-GIV peptide fluorescence polarization, 90 min; hits give low values; scaled: aluminum fluoride 0%, vehicle 100%. percent of control (FP), % (no concentration beside the values). 210,000 compounds, 0.42% hits;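 active = replicate mean at 85% of control or lower, very high polarization wells dropped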;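 also: wells of about 15 µL received 100 nL stock; the first replicate is given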
HCMV NEC inh: cytomegalovirus nuclear egress complex inhibition; actives 0.15% (n = 190,000); HTRF UL50-UL53 interaction, normalized percent inhibition; AID 1918969; inhibition, % (concentration not given with the values); in the data active = inhibition above about 27%, passing the limit was not always enough
GIV-Gai FP conf: confirmation of inhibitors of GIV binding to rat Galpha-i3; actives 38% (n = 580); fluorescence polarization, mP at 100 µM; FITC-GIV peptide binding to Galphai3, fluorescence polarization; hits give low values; shares compounds with GIV Gai3 FP;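 active = inhibition score of 15 or more, meaning 100 minus mean polarization as percent of control over three replicates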;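 also: lower mP means peptide displaced from Galphai3 so more inhibition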
GIV-Gai AS conf: GIV-Galpha-i3 inhibition, AlphaScreen confirmation; shares compounds with GIV Gai3 FP; AlphaScreen Galphai3-GIV binding, purified proteins, 90 min; hits give low values; AlphaScreen counts at 100 µM; actives 39% (n = 580); AID 1259351;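 active = inhibition score at or above a set limit, where the score is 100 minus the three-replicate mean percent of control signal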
* hit, by the source's call; · = no result given; ! = not active in a repeat. The full list was thinned out, with hits kept by preference.

no.	structure	GIV Gai3 FP	HCMV NEC inh	GIV-Gai FP conf	GIV-Gai AS conf
1	COc1cccc(CNC(=O)C2CCCN(c3nnc(-n4c(C)ccc4C)s3)C2)c1 (configuration not stated)	105	-7	·	·
2	Cc1nnc(-c2cc3ccccc3c3c2OC2(C=N3)N(C)c3ccccc3C2(C)C)o1 (configuration not stated)	112	·	·	·
3	c1ccc(Cn2cc3c(-c4ccccc4)nnc-3c3ccccc32)cc1	110	-60	·	·
4	CCOc1ccc2c(c1)c1nnc(-c3ccccc3)c-1cn2Cc1ccccc1	71*	-34	64	45947
5	O=C(O)CCCC(=O)Nc1nc2n(n1)C(c1ccc(Cl)cc1)C=C(c1ccc(Cl)cc1)N2 (configuration not stated)	104	-63	·	·
6	O=C(O)CCC(=O)Nc1nc2n(n1)C(c1ccc(Cl)cc1)C=C(c1ccccc1)N2 (configuration not stated)	63*	-75	44*	2477*
7	CCOC(=O)CC1=CC(SCC(=O)Nc2cc(C)[nH]n2)=Nc2ccccc2N1	108	-19	·	·
8	O=C1NC(=S)NC(=O)C1=Cc1cccc(O)c1Cl	77*	-11	69	4117*
9	CC(C)(C)c1ccc(OCCOc2ccccc2C=C2C(=O)NC(=S)NC2=O)cc1	95	-20	·	·
10	Clc1nc(Cl)nc(Nc2ccccc2)n1	·	6	·	·
11	COC(=O)c1ccsc1NC(=O)c1cccc(S(C)(=O)=O)c1	106	-33	·	·
12	COC(=O)c1ccsc1NC(=O)c1cccc(C)c1	65*	-26	69	35067
13	COc1ccc(NC(=O)c2sc3nc4c(c(-c5ccco5)c3c2N)CCCC4)cc1	84*	·	65	55254
14	COc1ccc(NC(=O)c2sc3nc4c(c(-c5ccco5)c3c2N)CCCCC4)cc1	106	·	·	·
15	c1ccc(-n2nnnc2SCC2CCCCO2)cc1 (configuration not stated)	·	17	·	·

The list goes on.
no.	structure	GIV Gai3 FP	HCMV NEC inh	GIV-Gai FP conf	GIV-Gai AS conf
16	Cc1cc(Cl)ccc1OCc1nc2c3ccccc3ncn2n1	104	-13	·	·
17	N#C/C(=C\c1c(Oc2ccccc2)nc2ccccn2c1=O)C(=O)NCc1ccco1	81*	-55	76	31816
18	CCOc1ccc2ccccc2c1/C=C(\C#N)C(=O)NCc1ccco1	100	-26	·	·
19	O=c1c2cccc3cccc(c32)c2nc3ccc4ccccc4c3n12	112	·	·	·
20	Nc1nnn2c(=O)c3cccc4cccc(c43)c12	88	-108	79	19934*
21	C=CCN(c1nc2nc(C)c(Cl)c(C)n2n1)S(=O)(=O)c1ccc(C)cc1	102	6	·	·
22	Cc1cc(C)n2nc(CN(C(=O)CC(C)C)c3ccccc3)nc2n1	92	4	71	35999
23	CCCC(=O)N(Cc1nc2nc(C)cc(C)n2n1)c1ccccc1	108	-3	·	·
24	Cc1[nH]c(C)c(S(=O)(=O)N2CCC(C(=O)Nc3ccc(F)cc3)CC2)c1C(=O)N1CCCC1	103	-15	·	·
25	COc1ccc(-c2nnc(SCC(=O)Nc3ccc(C)cc3)nc2-c2ccc(OC)cc2)cc1	91	·	65	47508
26	COc1ccc(-c2nnc(SCC(=O)Nc3cccc(C)c3C)nc2-c2ccc(OC)cc2)cc1	119	·	·	·
27	COc1ccc(-c2c/c(=N\O)c3cc(F)ccc3o2)cc1	·	-20	·	·
28	COc1ccc(-c2cc(=Nc3ccc(C)cc3C)c3cc(O)ccc3o2)cc1	75*	·	64	35576
29	c1ccc(-c2cnc(-c3cccs3)o2)cc1	·	-21	·	·
30	CNC(=O)c1cn(-c2ccccc2)c(=O)c2ccccc12	104	0	·	·

Later entries.
no.	structure	GIV Gai3 FP	HCMV NEC inh	GIV-Gai FP conf	GIV-Gai AS conf
31	CC(=O)n1c(=O)c2ccccc2c(=O)n1-c1ccccc1	79*!	-15	52*	2364*
32	CC(C)COc1cccc(OCC(=O)O)c1	·	-26	·	·
33	CCN1CCCc2cc(O)ccc21	-9.7*	-5	8.3*	5580*
34	CNC(=O)NC(=O)CN1CCCc2cc(C)ccc21	·	-29	·	·
35	CC(C)N1CCCc2cc(CN)ccc21	·	26	·	·
36	CCCN1CCCc2cc(CN)ccc21	65*	-13	51*	9116*
37	CCCCCn1c(SCc2ccncc2)nc2cc(C(=O)N3CCN(C(=O)OCC)CC3)ccc2c1=O	106	·	·	·
38	CC(C)c1ccc(CNC(=O)c2ccc(N3CCCC3)c(NC(=O)NCC3CCCO3)c2)cc1 (configuration not stated)	108	4	·	·
39	CC(=O)Nc1ccc(NC(=O)CCc2c(C)nn(-c3ccc4nncn4n3)c2C)cc1	103	·	·	·
40	Cc1nn(-c2ccc3nncn3n2)c(C)c1CCC(=O)Nc1ccc(F)c(Cl)c1	89	·	78	27312
41	N=c1c(C(N)=O)cc2c(=O)n3ccccc3nc2n1C1CCCC1	90	-125	70	36264
42	CCOC(=O)c1cc2c(=O)n3ccccc3nc2n(C2CCCCC2)c1=N	107	-35	·	·
43	O=C(NCc1cccc(Cl)c1)c1cc2ccccn2c1	76*	·	89	9777*
44	O=C(NCc1cccc(Cl)c1)c1ccc2c(c1)N(Cc1ccccc1)CCS2	104	-25	·	·
45	CN(C)C(CNC(=O)Cc1c[nH]c2ccccc12)c1ccco1 (configuration not stated)	·	-4	·	·

An excerpt of these results, with two lines to a compound:
Sequence of screens: GIV Gai3 FP | HCMV NEC inh | GIV-Gai FP conf | GIV-Gai AS conf
(40) Cc1nn(-c2ccc3nncn3n2)c(C)c1CCC(=O)Nc1ccc(F)c(Cl)c1
→ 89 | · | 78 | 27312
(41) N=c1c(C(N)=O)cc2c(=O)n3ccccc3nc2n1C1CCCC1
→ 90 | -125 | 70 | 36264
(42) CCOC(=O)c1cc2c(=O)n3ccccc3nc2n(C2CCCCC2)c1=N
→ 107 | -35 | · | ·
(43) O=C(NCc1cccc(Cl)c1)c1cc2ccccn2c1
→ 76* | · | 89 | 9777*
(44) O=C(NCc1cccc(Cl)c1)c1ccc2c(c1)N(Cc1ccccc1)CCS2
→ 104 | -25 | · | ·
(45) CN(C)C(CNC(=O)Cc1c[nH]c2ccccc12)c1ccco1 (configuration not stated)
→ · | -4 | · | ·

Next section
no.	structure	GIV Gai3 FP	HCMV NEC inh	GIV-Gai FP conf	GIV-Gai AS conf
46	Cc1[nH]nc2oc(=O)c(Cc3c(F)cccc3Cl)c(C)c12	100	-8	·	·
47	Cc1[nH]nc2oc(=O)c(CC(=O)O)c(C)c12	84*	65	59*	27884
48	COc1ccccc1C(=O)Nc1ccccc1SCc1cc(=O)c2ccccc2[nH]1	53*	·	53*	30214
49	COc1ccc(C(=O)Nc2ccccc2SCc2cc(=O)c3cccc(C)c3[nH]2)cc1	106	·	·	·
50	Cc1c(C(=O)N2CCC(C)CC2)sc2ncnc(N3CCN(C)CC3)c12	105	-25	·	·
51	O=C(Nc1nc(SCc2ccc(Cl)cc2)n[nH]1)c1cccs1	109	38	·	·
52	COC(=O)c1c(-c2ccc(Cl)cc2)noc1N1CCN(C)CC1	99	-27	·	·
53	COC(=O)c1c(-c2ccc(Cl)cc2)noc1N1CCN(c2ccccc2F)CC1	71*!	-2	64	42746
54	O=c1oc(-c2ccc(F)cc2)nn1CN1CCCC2CCCCC21 (configuration not stated)	·	-45	·	·
55	COc1ccc2c(C)[nH]c(=O)cc2c1	104	·	·	·
56	CCCc1[nH]c(=O)cc2cc(OC)c(OC)cc12	77*	42	58	23102*
57	CCCN(CCC)C(=O)c1cc2c(=O)oc3ccccc3c2s1	97	2	·	·
58	CCOc1ccc(C(=O)N(Cc2ccc(N(C)C)cc2)CC2CCCO2)cc1 (configuration not stated)	100	-23	·	·
59	CCC(C)c1ccc(NC(=O)NC(C)(C)C)cc1 (configuration not stated)	98	-28	·	·
60	COC(=O)c1cc(C(=O)Nc2ccc(C)cc2)c(=O)[nH]c1C	105	4	·	·

The list goes on:
no.	structure	GIV Gai3 FP	HCMV NEC inh	GIV-Gai FP conf	GIV-Gai AS conf
61	COC(=O)c1cc(C(=O)Nc2ccc(Cl)cc2)c(=O)[nH]c1C	106	-13	81	29055
62	O=C(NCC1CCCO1)N1CCOc2ccccc21 (configuration not stated)	101	·	·	·
63	CC1CC(C)CN(c2cnnc3c(Cl)cccc23)C1 (configuration not stated)	105	-92	·	·
64	Clc1cccc2c(N3CCCCCC3)cnnc12	83*	-105	72	33684
65	COC(=O)c1sc2cc(OC)ccc2c1Cl	107	-2	·	·
66	N#C/C(=C/c1ccc(-c2cccc(C(F)(F)F)c2)o1)c1ccc(C(=O)O)cc1	111	-52	·	·
67	O=C(O)C(=Cc1ccc(-c2cccc(C(F)(F)F)c2)o1)C(=O)O	84*	-16	67	15696*
68	O=C(c1ccccc1)C1C(=O)c2ccccc2C1=O	97	-38	·	·
69	O=C1c2ccccc2C(=O)C1C(c1ccccc1)C1C(=O)c2ccccc2C1=O	76*	·	54	5972*
70	CCn1nc(C)c(CCN(C)C(=O)Nc2ccc(OC)cc2OC)c1C	104	-11	·	·
